The results in this text go back to patent US8653069B2, “Aralkyl substituted piperidine or piperazine derivatives and their use for treating schizophrenia” (Jiangsu Hengyi Pharmaceutical Co., Ltd., priority 2008, dated 2014).

Sequences of proteins named here, by UniProt entry; tags and fusion partners are left off.
UniProt P14416, whole entry: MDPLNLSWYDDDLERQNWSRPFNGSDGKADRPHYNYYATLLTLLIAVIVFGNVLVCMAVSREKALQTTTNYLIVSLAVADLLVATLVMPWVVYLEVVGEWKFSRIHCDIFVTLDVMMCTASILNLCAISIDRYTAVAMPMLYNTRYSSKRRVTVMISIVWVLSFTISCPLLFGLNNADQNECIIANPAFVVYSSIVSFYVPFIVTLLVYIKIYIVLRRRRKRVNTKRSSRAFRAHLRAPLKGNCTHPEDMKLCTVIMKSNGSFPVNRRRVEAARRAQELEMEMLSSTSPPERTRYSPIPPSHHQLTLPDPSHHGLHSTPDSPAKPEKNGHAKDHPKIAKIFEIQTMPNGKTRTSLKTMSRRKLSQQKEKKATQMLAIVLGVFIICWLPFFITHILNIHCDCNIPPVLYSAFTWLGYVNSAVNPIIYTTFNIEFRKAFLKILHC

The target in the test is T1, dopamine D2 receptor (Homo sapiens, UniProt P14416).
T1 construct: expressed in transfected cells; host or cells: CHO-hD2L cells (membrane preparation)
The test is described as follows: Dopamine D2 receptor-binding assay ([3H]Spiperone displacement). Conditions: inhibition of binding of 0.4 nM [3H]Spiperone, CHO-hD2L film product, room temperature 120 minutes; read-out: IC50 (affinity to D2 receptor). Here is the method:
A Dopamine D2 Receptor-Binding Assay
An isotope ligand for D2 receptor: [^3H]Spiperone (77.0 Ci/mmol); (+)Butaclamol; GF/C glass fiber media; a liposoluble scintillation solution; and the D2 receptor protein expressed by sf9 cells.
A binding assay of a film product of CHO-hD2L cells and [^3H]Spiperone is conducted in a 250 μl of 50 mM of Tris-HCl […] buffer (Ph=7.4) solution comprising 100 mM of NaCl, 1 mM of MgC12 and 1% of DMSO. A sample in duplicate containing compounds to be tested, 0.4 nM of [^3H]Spiperone and 12 ug of protein is maintained at room temperature for 120 minutes. The bound radioactive ligand is separated by flash filtration under reduced pressure using Whatman GF/B glass fiber filter pre-treated with 0.3% polyethylenelmine, and radioactivity maintained on the filter is measured using liquid scintillation spectrophotometry. The title compounds in the following examples are tested using the above test, which comprises first of all testing competitive inhibition rate of each compound at a concentration of 10 umol/L to binding of [^3H]Spiperone to D2 receptor through a rough screening; and compounds having inhibition rate higher than 95% are subjected to receptor binding assay under a series of concentrations to determine a half-inhibitory concentration (IC50, the concentration of a compound needed for inhibiting binding of 50% [^3H]Spiperone to D2 receptor).

For “6-[4-(4-(3-(6-fluoro-benzisoxazolyl))-1-piperazinyl)-n-butoxy]-(1H)-benzimidazole [IV-4]”, the half-maximal inhibitory concentration (IC50) (in general, the concentration needed to halve the response being measured) was found to be 15.3 nM.
